High-throughput results: PubChem, Broad Institute
A selection: hits, their analogues and other compounds. The true share with any hit is near 2.2%.
PDI inh = blocks human protein disulfide isomerase activity; actives 0.052% (n = 350,000); P07237; AID 588391; PDI insulin aggregation turbidity, A650, 90 min; inhibition, % at 10 µM;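 active = mean inhibition across replicates of 30% or more, whatever share of single replicates reach that level; inconclusive = mean inhibition below 30% while every single replicate reaches 30%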
ERp5 block = blocks human ERp5 reductase activity on insulin. ERp5 insulin aggregation, absorbance 650 nm, 90 min. inhibition, % at 9.99 µM. actives 0.05% (n = 350,000);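 active = mean replicate inhibition above about 25%, with every replicate also reaching it, limit read from the data, passing the limit was not always enough; inconclusive = only one of those two criteria met; inactive = neither criterion met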
FGF22 binding = FGF22 (human) thermal shift binding. activity (Tm shift, normalised), % at 9.99 µM. actives 1.5% (n = 340,000). recombinant FGF22 thermal shift, SYPRO orange fluorescence; percent of sucrose octasulfate shift, DMSO zero. AID 651658;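 active = mean Tm shift, scaled 0 neutral to 100 positive control, at about 1.3% or above, every replicate too, limit read from the data; inconclusive = no clear call, values can overlap the other calls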
Yeast UUG start = alters start codon recognition fidelity in yeast | S. cerevisiae UUG-firefly luciferase reporter, luminescence/redox ratio | activity score, % at 18.7 µM | hit rate 0.13% among 350,000 | AID 602363;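 active means replicate mean at a twofold rise or more, about +100% in these data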;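 further: firefly luciferase made from a UUG start codon reports start codon fidelity; reporter light over untreated wells divided by growth signal over untreated wells; some hits fall short of that in this replicate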
SIRT5 block = blocks human SIRT5 desuccinylation of peptide. actives 1.1% (n = 330,000). Q9NXA8. inhibition, % at 15 µM. Purified SirT5, succinyl-peptide AMC, trypsin-coupled fluorescence; in the data active = inhibition above about 15%; inconclusive = no clear call, values can overlap the other calls
S100A4 MyoIIA = blocks human S100A4 binding to myosin IIA peptide | S100A4/TAMRA-MyoIIA peptide fluorescence polarization | inhibition, % at 10.7 µM | actives 0.14% (n = 360,000) | AID 652163;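 active = mean inhibition of at least 70% across replicates, with every replicate also reaching that level; inconclusive = mean inhibition reaches 70% but some replicates fall short; inactive = mean inhibition below 70%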
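assay system = human S100A4 monomer with TAMRA-labelled myosin IIA peptide | also added = labelled myosin peptide probe, 5 nM | incubation = 5 min between mix addition and reading | control set = DMSO and TFP controls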
A number is an active result; . = inactive; ? = inconclusive; / = not tested or not shown; + = active, no number.

SMILES | PDI inh | ERp5 block | FGF22 binding | Yeast UUG start | SIRT5 block | S100A4 MyoIIA
COc1ccc2c3c(n(C)c2c1)[C@@H](CO)N(CC1CC1)CC31CN(C(=O)c2ccccc2)C1 | / | . | . | / | / | .
CO[C@@H](CN(C)C(=O)c1ccccc1F)[C@@H](C)CN([C@H](C)CO)S(=O)(=O)c1ccc(Cl)cc1 | / | . | . | / | . | .
CC(=O)c1cccc(S(=O)(=O)NCC(C)(C)N2CCOCC2)c1 | . | . | . | . | 16 | .
COc1ccccc1NC(=O)N[C@H]1C=C[C@H](CC(=O)NCc2ccc(Cl)c(Cl)c2)O[C@@H]1CO | / | . | . | . | . | .
CCOC(=O)N1CCN(C(=O)C2CCC(=O)N(Cc3cccc(C(F)(F)F)c3)C2)CC1 (stereo not drawn) | . | . | . | . | 21 | .
CC1CCN(C(=O)C2CCC(=O)N(Cc3ccc(Cl)cc3)C2)CC1 (stereo not drawn) | . | . | . | . | 23 | .
CCN1/C(=C/C=C/c2sc3ccccc3[n+]2CC)Sc2ccccc21 | . | / | / | . | / | /
CCN1/C(=C/C=C/c2oc3ccc(-c4ccccc4)cc3[n+]2CC)Oc2ccc(-c3ccccc3)cc21 | . | . | . | . | . | +
CC(C)NC(=O)N(C)C[C@H]1OCCCC[C@@H](C)Oc2ccc(NS(=O)(=O)c3cn(C)cn3)cc2C(=O)N([C@H](C)CO)C[C@H]1C | / | . | . | . | . | .
Brc1ccc2c(c1)-c1ccccc1C1=NCCN12 | . | . | 43 | . | / | .
Clc1ccc2c(c1)-c1ccccc1C1=NCCN12 | . | . | . | / | . | .
Cn1c(=O)c2c(nc(Sc3ncnn3CC(=O)NC(C)(C)C)n2C)n(C)c1=O | . | . | 43 | . | . | .
Cn1c(=O)c2c(ncn2CC(=O)NC(C)(C)C)n(C)c1=O | . | . | . | . | . | .
Cc1nn(C)c(Cl)c1C(=O)NCC(=O)Nc1ccc(C(C)C)cc1 | . | . | 44 | / | . | .
Cc1ccc(CNC(=O)CNC(=O)c2c(C)nn(C)c2Cl)cc1 | . | . | / | / | . | .
CO[C@@H]1CN(C)C(=O)c2ccc(NC(=O)Nc3ccccc3F)cc2OC[C@@H](C)N(C)C[C@@H]1C | / | . | . | . | . | .
Cc1noc(C)c1S(=O)(=O)N(C)C[C@@H]1OCCCC[C@@H](C)Oc2ccc(NC(=O)Nc3ccc(C(F)(F)F)cc3)cc2C(=O)N([C@H](C)CO)C[C@H]1C | / | . | . | . | . | .
CCNC(=O)CC1C(=O)N(c2ccc(F)cc2)C(=S)N1CCc1ccncc1 (stereo not drawn) | . | . | . | / | . | .
O=C(CC1C(=O)N(c2ccc(Cl)cc2)C(=S)N1CCc1ccncc1)Nc1ccc(F)cc1 (stereo not drawn) | . | . | 2.3 | . | . | .
Nc1c(/C=C2/C=CC(=O)C(O)=C2)c(=O)nc2sc(CC(=O)N3CCOCC3)nn12 | . | . | . | . | 34 | .
Nc1c(C=C2C=CC(=O)C=C2)c(=O)nc2sc(CC(=O)N3CCCCC3)nn12 | . | . | . | . | 40 | .
Nc1c(/C=C2/C=CC(=O)C(O)=C2)c(=O)nc2sc(CC(=O)N3CCCCC3)nn12 | . | . | . | . | 43 | .
Nc1c(/C=C2/C=CC(=O)C(O)=C2)c(=O)nc2sc(CC(=O)N3CCCC3)nn12 | . | . | . | . | 29 | .
CC1=Nc2ccc(C)cc2/C1=C/c1c(N)n2nc(CC(=O)N3CCOCC3)sc2nc1=O | . | . | . | . | . | .
CCc1nn2c(N)c(/C=C3\C=Nc4ccccc43)c(=O)nc2s1 | . | . | . | . | . | .
SMILES | PDI inh | ERp5 block | FGF22 binding | Yeast UUG start | SIRT5 block | S100A4 MyoIIA
Cc1ccc(S(=O)(=O)N[C@H]2CC[C@H](CCNC(=O)c3ccccc3F)O[C@H]2CO)cc1 | / | . | . | / | . | .
O=C(COC(=O)c1ccc(Cl)nc1)c1ccc2c(c1)OCCO2 | . | . | 43 | / | . | .
Cc1ccc(CN(C)CCc2ccccn2)cc1 | . | / | / | . | / | /
CCc1ccc(CN(C)CCc2ccccn2)cc1 | . | . | . | . | 21 | .
CO[C@@H]1CN(C)C(=O)c2ccc(NC(=O)Nc3cc(Cl)cc(Cl)c3)cc2OC[C@H](C)NC[C@@H]1C | / | . | . | / | . | .
O=[N+]([O-])c1ccc2nc(C(O)C(O)c3nc4ccc([N+](=O)[O-])cc4[nH]3)[nH]c2c1 (stereo not drawn) | . | . | . | . | 100 | .
c1ccc(Oc2ncnc3ccccc23)cc1 | . | . | 43 | . | / | .
CN1C(=O)c2cc(NC(=O)c3cnccn3)ccc2OC[C@@H]2O[C@H](CC(=O)NCC3CC3)CC[C@@H]21 | / | . | / | / | . | .
Cc1ccc(NC(=O)C(OC(=O)c2ccc(O)cc2)c2ccccc2)cc1Cl (stereo not drawn) | . | . | 78 | . | . | .
Cc1noc(C)c1S(=O)(=O)Nc1ccc2c(c1)C(=O)N([C@H](C)CO)C[C@H](C)[C@@H](CN(C)C(=O)Nc1ccc(C(F)(F)F)cc1)OCCCC[C@H](C)O2 | / | . | . | . | . | .
Cc1nn(C)c(C)c1/C=C/C(=O)O | . | . | 43 | . | . | .
O=C(Nc1ccccc1C(=O)O)c1cc(S(=O)(=O)Nc2ccccc2)ccc1Cl | . | . | 2.8 | . | 23 | .
CC(C)C[C@H](NC(=O)c1nc[nH]c1C(=O)NCC(=O)OCc1ccccc1)C(=O)OC(C)(C)C | . | . | . | . | 21 | .
COc1ccc2c3c(n(C)c2c1)[C@H](CO)N(Cc1cccc(Cl)c1)CC31CCN(C(C)=O)CC1 | / | . | . | / | . | .
Cc1noc(C)c1NC(=O)NCC[C@@H]1CC[C@H](NC(=O)c2ccc(F)cc2)[C@H](CO)O1 | / | . | . | / | . | .
NNC(=O)c1sccc1OCc1cccc(C(F)(F)F)c1 | . | ? | . | / | . | .
CC(=O)c1ccc(OCc2cccc(C(F)(F)F)c2)cc1O | . | . | 43 | / | . | .
Cc1nc(S(=O)(=O)N(C)Cc2ccccc2)c(C#N)c(C)c1Cl | . | . | / | . | 17 | .
Cc1nc(S(=O)(=O)NC2CCCCC2)c(C#N)c(C)c1Cl | . | / | / | . | / | /
O=C(C[C@H]1CC[C@@H](NC(=O)c2ccccc2)[C@@H](CO)O1)NCCc1ccncc1 | / | . | . | / | . | .
CO[C@@H]1CN(C)C(=O)c2cc(NC(=O)NC(C)C)ccc2OC[C@@H](C)N(S(C)(=O)=O)C[C@@H]1C | / | . | . | / | . | .
C=CCN1C(=O)C2(NC(=O)c3ccccc3N2)c2ccccc21 (stereo not drawn) | . | . | 43 | / | . | .
C=CCN1C(=O)C2(NNc3ccccc3O2)c2ccccc21 (stereo not drawn) | . | / | / | / | / | /
CCOC(=O)c1c(CN(C)C)n(-c2ccc(C)cc2)c2cc(Br)c(O)cc12 | 49 | / | / | / | / | /
CC(=O)N(C)C[C@H]1Oc2ncc(C#CC(C)(C)O)cc2C(=O)N([C@@H](C)CO)C[C@H]1C | / | . | . | . | . | .
